ChEMBL document CHEMBL1129362 (J Med Chem, 1996)

Sequences of proteins named here, by UniProt entry; tags and fusion partners are left off.
UniProt P32238, whole entry: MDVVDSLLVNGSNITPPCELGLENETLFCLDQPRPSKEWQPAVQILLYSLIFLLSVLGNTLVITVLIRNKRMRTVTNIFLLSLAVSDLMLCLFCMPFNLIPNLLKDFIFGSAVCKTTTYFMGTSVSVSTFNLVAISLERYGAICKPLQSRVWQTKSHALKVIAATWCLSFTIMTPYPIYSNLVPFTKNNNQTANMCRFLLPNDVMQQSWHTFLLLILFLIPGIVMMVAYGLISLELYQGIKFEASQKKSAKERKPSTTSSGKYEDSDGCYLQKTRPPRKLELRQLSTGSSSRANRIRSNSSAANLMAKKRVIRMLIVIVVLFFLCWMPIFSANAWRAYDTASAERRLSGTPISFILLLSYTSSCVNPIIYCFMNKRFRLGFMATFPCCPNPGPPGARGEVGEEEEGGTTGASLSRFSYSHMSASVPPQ

Molecular target: Cholecystokinin receptor type A (Homo sapiens, UniProt P32238)
Assay: Binding affinity against human Cholecystokinin type A receptor by displacement of [125I]CCK-8

COc1ccc(N(C(=O)CN2C(=O)C(C)(Cc3c[nH]c4ccccc34)C(=O)N(c3ccccc3)c3ccccc32)C(C)C)cc1 (stereo unspecified)
IC50: 8.32 nM
